How the values of the data set were obtained:
Signed and dated written informed consent was obtained from each patient before participation in the study and before the performance of any procedures. After informed consent was obtained, eligible participants were given the choice to be admitted to the clinical research unit on day − 1 or on day 1. A summary of the study design can be found in Fig. 1. […] Subjects continued fasting until 2 h after the start of the IV infusion, at which time a non-standardised light meal was served. The radiolabelled dose contained approximately 100 nCi (3.7 kBq) radioactivity and was administered into one arm of the subject; the contralateral arm was used for pharmacokinetic sampling and clinical laboratory blood draws. The syringe for IV drug administration was connected to a Perfusor Space Infusion Pump (B. Braun), which was set to administer 7 mL in 15 min. Blood samples were taken pre-dose and at 1, 1.5, 2 (just before start of IV infusion), 2.125 (halfway through the IV infusion), 2.25 (just before end of infusion), 2.33, 2.66, 3, 4, 6, and 12 h. Sampling was done on each morning of days 2, 3, 4, 5, 7, 9, 11, 13, 15, and 22. Plasma was divided in two sets: one set was sent to Xceleron Inc. (Germantown, MD, USA) for the determination of plasma concentrations of the ^14C-microtracer by AMS, and the other set was stored at the Antoni van Leeuwenhoek Hospital until it received pharmacokinetic analysis at the Good Laboratory Practice–licensed laboratory of the pharmacy. Plasma was separated from blood by centrifugation (3,000 rpm, 15 min, 4 °C) and was stored frozen at ≤ − 70 °C in polypropylene tubes before and after analysis. […] Vital signs assessments, haematology assessment, and blood chemistry assessments were done frequently to make sure that the patients were still in sufficient condition to remain on treatment. […] The study was approved by the local independent ethics committee and was conducted in accordance with local regulations, the Declaration of Helsinki, and International Conference on Harmonisation Good Clinical Practice Guidelines.
Total ^14C-radioactivity concentrations in plasma samples were determined using AMS. Plasma samples were directly aliquoted into tubes containing copper oxide powder (CuO). The samples were graphitised and analysed by a Single Stage Accelerator Mass Spectrometer (SSAMS) 250 kV system (National Electrostatics Corp., Middleton, WI, USA). […] Samples were analysed by an Agilent 1200 HPLC system (Agilent Technologies, Palo Alto, CA, USA) equipped with a wavelength UV detector set to 254 nm. Separation was achieved using a Phenomenex Kinetex 2.6 µ biphenyl column (100 Å, 100 × 3.0 mm). Mobile phase A and B consisted of 20 mM ammonium acetate in water and 0.1% formic acid in acetonitrile–methanol (50:50, v/v), respectively. Column oven temperature was set at 40 °C, and run-time was 18 min. […] The fractions were graphitised and analysed by SSAMS. Each batch of experimental samples was run against freshly prepared calibration standards at seven concentrations in duplicates. Replicate quality control samples at three concentrations were stored and also analysed alongside study samples. Finally, F po was calculated as the ratio of the dose-normalised AUC of the oral dose to the IV dose.

Setting [1] is: 100 µg IV 14C-niraparib, plasma, n = 6.

Experimental findings from publication PMC5754411 (Cancer Chemotherapy and Pharmacology, 2017) are described below.

“And” between values parts separate entries of the source, which are not always exact repeats. Equal entries are not always repeated. Where two headings read alike, the source gives them in different places.

As for ^14C-niraparib, the “CL” value (100 µg IV 14C-niraparib) came to 5.90 L·h. For the same substance, the C max (100 µg IV 14C-niraparib, 15-min infusion, plasma, n = 6) is 4.19 ng-equivalents/mL and 4.19 (45.0) ng-equivalents/mL. For the same substance, where the note is “100 µg IV 14C-niraparib, n = 6”, the CL is 5.90 (64.1) L/h and the V d is on record as 194 (22.1) L. Besides, under setting [1], the “AUC0–inf” value is 21.5 (49.3) ng-equivalents × h/mL, the “AUC0–last” value is recorded as 16.4 (53.1) ng-equivalents × h/mL and the “t ½” value is given as 28.2 (43.9) h. Also, the “Difference between AUC of 14C-niraparib and total 14C-radioactivity” value (100 µg IV 14C-niraparib, indicates extensive metabolism) is reported as “more than tenfold”. Moreover, under “100 µg IV vs 300 mg oral”, the “C max of 14C-niraparib dose lower than that of unlabelled niraparib dose” value is 303 fold. Under “after dosing, all six patients”, the “Time up to which 14C-radioactivity could be measured in plasma” value was “up to 504 h”. Besides, the Hepatic extraction ratio entry (from CL, assuming hepatic blood flow approximately 80 L/h) is given as “very low”. The “Last time point at which 14C-niraparib was detected in plasma by AMS” value (post-dose, 100 µg IV) is on record as not above 96 h.
